In patent publication US12528818B2, “Compositions and methods for inhibition of RAS” (Leidos Biomedical Research, Inc., priority 2021, dated 2026):

Experiments:
[1] = target: GppNHp-loaded KRAS4b (amino acids 1-169) G12C/C118S protein (Homo sapiens, UniProt P01116, C118S/G12C); assay: Covalent cysteine 12 modification by MALDI-TOF MS, GppNHp-loaded KRAS G12C; type: biochemical; conditions: 15 minutes reaction time, compound 95 or later using 1 μM proteins
[2] = target: T1, GTP-loaded KRAS4b (amino acids 1-169) G12C/C118S protein (Homo sapiens, UniProt P01116, C118S/G12C); assay: Covalent cysteine 12 modification by MALDI-TOF MS, GTP-loaded KRAS G12C; type: biochemical; conditions: 15 minutes reaction time, compound 95 or later using 1 μM proteins
T1 construct: KRAS4b (amino acids 1-169) G12C/C118S protein; made in house

[3] = target: GDP-loaded KRAS4b (amino acids 1-169) G12C/C118S protein (Homo sapiens, UniProt P01116, C118S/G12C); assay: Covalent cysteine 12 modification by MALDI-TOF MS, GDP-loaded KRAS G12C; type: biochemical; conditions: 15 minutes reaction time, compound 95 or later using 1 μM proteins
[4] = target: Avi-KRAS G12C (1-169) GppNHp/RAF1 RBD-3xFLAG (52-151) (Homo sapiens, UniProt P01116, G12C); assay: biochemical; conditions: Raf1-GppNHp-KRAS G12C disruption, Raf1 RBD-KRAS G12C-GppNHp disruption assay IC50

SMILES | GppNHp-KRAS G12C percent of modification [1] | GTP-KRAS G12C percent of modification [2] | GDP-KRAS G12C percent of modification [3] | IC50 [4] [nM]
C=CC(=O)N1CC[C@@H]2[C@H]1CN2c1nc(OC[C@@]23CCCN2C[C@H](F)C3)nc2c(F)c(-c3ccc(F)c4sc(N)c(C#N)c34)c(C(F)(F)F)cc12 [Compound 339] | A (percent of modification ≥70%) | A (percent of modification ≥70%) | A (percent of modification ≥70%) | < 500
C=CC(=O)N1CC[C@@H](N(C)c2nc(N3CC(N4CC5(CC5)C4)C3)nc3c(F)c(-c4ccc(F)c5sc(N)c(C#N)c45)c(C(F)(F)F)cc23)C1 [Compound 340] | C (10%≤percent of modification <50%) | C (10%≤percent of modification <50%) | C (10%≤percent of modification <50%) | < 500
C=CC(=O)N1C[C@H](C)N(c2nc(OC[C@@]34CCCN3C[C@H](OC)C4)nc3c(F)c(-c4ccc(F)c5sc(N)c(C#N)c45)c(C(F)(F)F)cc23)C[C@H]1C [Compound 341] | A (percent of modification ≥70%) | A (percent of modification ≥70%) | A (percent of modification ≥70%) | < 500
C=CC(=O)N1CC[C@@H](N(C)c2nc(OC[C@@]34CCCN3C[C@H](F)C4)nc3c(F)c(-c4ccc(F)c5sc(N)c(C#N)c45)c(Cl)cc23)C1 [Compound 342] | A (percent of modification ≥70%) | A (percent of modification ≥70%) | A (percent of modification ≥70%) | < 500
C=CC(=O)N1CC[C@@H](N(C)c2nc(OC[C@@]34CCCN3C[C@H](F)C4)nc3c(F)c(-c4ccc(F)c5sc(N)c(C#N)c45)c(F)cc23)C1 [Compound 343] | C (10%≤percent of modification <50%) | C (10%≤percent of modification <50%) | C (10%≤percent of modification <50%) | < 500
C=CC(=O)N1CCN(c2nc(OC[C@@]34CCCN3C[C@H](F)C4)nc3c(F)c(-c4ccc(F)c5sc(N)c(C#N)c45)c(C(F)(F)F)cc23)CC1 [Compound 345] | A (percent of modification ≥70%) | A (percent of modification ≥70%) | A (percent of modification ≥70%) | < 500
C=CC(=O)N1C[C@H](C)N(c2nc(OCC34CCCN3CCC4)nc3c(F)c(-c4ccc(F)c5sc(N)c(C#N)c45)c(C(F)(F)F)cc23)C[C@H]1C [Compound 346] | A (percent of modification ≥70%) | A (percent of modification ≥70%) | A (percent of modification ≥70%) | < 500
C=CC(=O)N1CCN(c2nc(OC[C@@]34CCCN3C[C@H](F)C4)nc3c(F)c(-c4ccc(F)c5sc(N)c(C#N)c45)c(C(F)(F)F)cc23)[C@@H](C)C1 [Compound 347] | A (percent of modification ≥70%) | A (percent of modification ≥70%) | A (percent of modification ≥70%) | < 500
C=CC(=O)N1CC[C@@H](N(CC)c2nc(OC[C@@]34CCCN3C[C@H](F)C4)nc3c(F)c(-c4ccc(F)c5sc(N)c(C#N)c45)c(C(F)(F)F)cc23)C1 [Compound 348, 4-(4-(((R)-1-acryloylpyrrolidin-3-yl)(ethyl)amino)-8-fluoro-2-(((2R,7aS)-2-fluorotetrahydro-1H-pyrrolizin-7a(5H)-yl)methoxy)-6-(trifluoromethyl)quinazolin-7-yl)-2-amino-7-fluorobenzo[b]thiophene-3-carbonitrile] | A (percent of modification ≥70%) | A (percent of modification ≥70%) | A (percent of modification ≥70%) | < 500
C=CC(=O)N1C[C@@H](F)[C@@H](N(C)c2nc(OC[C@@H]3C[C@@H](OC)CN3C)nc3cc(-c4ccc(F)c5sc(N)nc45)c(C(F)(F)F)cc23)C1 [Compound 350] | A (percent of modification ≥70%) | C (10%≤percent of modification <50%) | A (percent of modification ≥70%) | < 500
C=CC(=O)N1C[C@@H](F)[C@@H](N(C)c2nc(OC[C@@H]3CC4(CC4)CN3C)nc3cc(-c4ccc(F)c5sc(N)nc45)c(C(F)(F)F)cc23)C1 [Compound 351] | A (percent of modification ≥70%) | A (percent of modification ≥70%) | A (percent of modification ≥70%) | < 500
C=CC(=O)N1CC[C@@H](N(CC)c2nc(OC[C@@]34CCCN3C[C@H](F)C4)nc3cc(-c4ccc(F)c5sc(N)c(C#N)c45)c(C(F)(F)F)cc23)C1 [Compound 352] | A (percent of modification ≥70%) | A (percent of modification ≥70%) | A (percent of modification ≥70%) | < 500
C=CC(=O)N1C[C@@H](F)[C@@H](N(C)c2nc(OC[C@@]34CCCN3C[C@H](F)C4)nc3c(F)c(-c4ccc(F)c5sc(N)nc45)ccc23)C1 [Compound 353] | A (percent of modification ≥70%) | A (percent of modification ≥70%) | A (percent of modification ≥70%) | < 500
C=CC(=O)N1CC[C@@H](N(C)c2nc(OC[C@@]34CCCN3C[C@H](F)C4)nc3cc(-c4ccc(F)c5sc(N)c(C#N)c45)c(C(F)(F)F)cc23)[C@H]1C [Compound 354, 4-(4-(((2R,3R)-1-acryloyl-2-methylpyrrolidin-3-yl)(methyl)amino)-2-(((2R,7aS)-2-fluorotetrahydro-1H-pyrrolizin-7a(5H)-yl)methoxy)-6-(trifluoromethyl)quinazolin-7-yl)-2-amino-7-fluorobenzo[b]thiophene-3-carbonitrile] | A (percent of modification ≥70%) | A (percent of modification ≥70%) | A (percent of modification ≥70%) | < 500
C=CC(=O)N1C[C@@H](F)[C@@H](N(C)c2nc(OC[C@@H]3C[C@@H](F)CN3C)nc3cc(-c4ccc(F)c5sc(N)nc45)c(C(F)(F)F)cc23)C1 [Compound 355] | B (50≤percent of modification <70%) | C (10%≤percent of modification <50%) | A (percent of modification ≥70%) | < 500
C=CC(=O)N1C[C@@H](F)[C@@H](N(C)c2nc(OC[C@@H]3C[C@@H](F)CN3C)nc3cc(-c4ccc(F)c5sc(N)c(C#N)c45)c(C(F)(F)F)cc23)C1 [Compound 356] | A (percent of modification ≥70%) | B (50≤percent of modification <70%) | A (percent of modification ≥70%) | < 500
C=CC(=O)N1C[C@@H](F)[C@@H](N(C)c2nc(OC[C@@H]3CC4(CC4)CN3C)nc3cc(-c4ccc(F)c5sc(N)c(C#N)c45)c(C(F)(F)F)cc23)C1 [Compound 357] | A (percent of modification ≥70%) | A (percent of modification ≥70%) | A (percent of modification ≥70%) | < 500
C=CC(=O)N1C[C@@H](F)[C@@H](N(C)c2nc(OC[C@@]34CCCN3C[C@H](F)C4)nc3c(F)c(-c4ccc(F)c5sc(N)c(C#N)c45)ccc23)C1 [Compound 359] | A (percent of modification ≥70%) | A (percent of modification ≥70%) | A (percent of modification ≥70%) | < 500
C=CC(=O)N1C[C@@H](F)[C@@H](N(C)c2nc(OC[C@@]34CCCN3C[C@H](F)C4)nc3c(F)c(-c4ccc(F)c5sc(N)nc45)c(C#N)cc23)C1 [Compound 360] | A (percent of modification ≥70%) | B (50≤percent of modification <70%) | A (percent of modification ≥70%) | < 500
C=CC(=O)N1C[C@@H](F)[C@@H](N(C)c2nc(OC[C@@H]3C[C@@H](OC)CN3C)nc3cc(-c4ccc(F)c5sc(N)c(C#N)c45)c(C(F)(F)F)cc23)C1 [Compound 361] | B (50≤percent of modification <70%) | B (50≤percent of modification <70%) | A (percent of modification ≥70%) | < 500
C=CC(=O)N1C[C@@H](F)[C@@H](N(CC)c2nc(OC[C@@]34CCCN3C[C@H](F)C4)nc3c(F)c(-c4ccc(F)c5sc(N)c(C#N)c45)c(C(F)(F)F)cc23)C1 [Compound 362] | B (50≤percent of modification <70%) | B (50≤percent of modification <70%) | B (50≤percent of modification <70%) | < 500
